Laboratory results published in ChEMBL document CHEMBL4831556, “Discovery of a Novel Potent and Selective Calcium Release-Activated Calcium Channel Inhibitor: 2,6-Difluoro-N-(2'-methyl-3'-(4-methyl-5-oxo-4,5-dihydro-1,3,4-oxadiazol-2-yl)-[1,1'-biphenyl]-4-yl)benzamide. Structure-Activity Relationship and Preclinical Characterization” (J Med Chem, 2021).

Protein sequences, listed by entry. Tags and fused reporters are not part of them.
UniProt P01375, whole entry: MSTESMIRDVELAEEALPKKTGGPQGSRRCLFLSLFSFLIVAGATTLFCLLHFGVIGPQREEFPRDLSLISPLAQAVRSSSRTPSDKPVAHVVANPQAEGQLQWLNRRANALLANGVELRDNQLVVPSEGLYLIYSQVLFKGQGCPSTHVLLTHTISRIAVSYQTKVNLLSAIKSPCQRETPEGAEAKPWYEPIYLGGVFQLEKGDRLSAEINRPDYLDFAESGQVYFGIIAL
UniProt Q96D31, whole entry, looked up: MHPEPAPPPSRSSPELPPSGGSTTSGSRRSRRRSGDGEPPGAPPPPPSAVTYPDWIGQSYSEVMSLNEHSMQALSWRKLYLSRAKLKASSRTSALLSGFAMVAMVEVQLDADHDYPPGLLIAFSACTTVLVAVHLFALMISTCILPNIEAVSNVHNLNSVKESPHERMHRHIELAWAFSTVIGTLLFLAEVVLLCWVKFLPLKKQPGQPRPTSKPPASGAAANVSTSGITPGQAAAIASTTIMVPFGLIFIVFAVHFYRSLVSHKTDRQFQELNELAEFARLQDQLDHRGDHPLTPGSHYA
UniProt Q13586, whole entry, looked up: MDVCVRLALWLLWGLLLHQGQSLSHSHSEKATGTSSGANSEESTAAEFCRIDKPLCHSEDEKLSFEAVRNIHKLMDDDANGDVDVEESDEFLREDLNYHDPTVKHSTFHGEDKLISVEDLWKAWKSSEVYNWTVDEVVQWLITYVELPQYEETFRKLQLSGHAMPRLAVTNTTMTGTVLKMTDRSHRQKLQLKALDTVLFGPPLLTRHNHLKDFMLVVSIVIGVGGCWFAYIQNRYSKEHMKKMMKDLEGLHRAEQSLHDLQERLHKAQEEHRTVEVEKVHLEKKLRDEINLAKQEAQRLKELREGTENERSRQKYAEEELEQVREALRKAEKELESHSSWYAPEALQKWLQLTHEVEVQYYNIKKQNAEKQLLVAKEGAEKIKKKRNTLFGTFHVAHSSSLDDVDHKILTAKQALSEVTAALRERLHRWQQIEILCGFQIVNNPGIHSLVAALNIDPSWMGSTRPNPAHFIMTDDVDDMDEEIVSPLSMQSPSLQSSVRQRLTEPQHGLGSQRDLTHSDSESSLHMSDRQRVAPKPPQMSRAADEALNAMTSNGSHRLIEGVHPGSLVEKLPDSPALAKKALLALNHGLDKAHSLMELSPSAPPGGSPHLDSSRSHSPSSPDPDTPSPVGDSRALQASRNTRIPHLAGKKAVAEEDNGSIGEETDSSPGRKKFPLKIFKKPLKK

Columns and labels:
Tumor necrosis factor [1] = molecular target: T1, Tumor necrosis factor (Homo sapiens, UniProt P01375); details: Blood, dose 80.0 mg, time 14.0 day
Tumor necrosis factor [2] = molecular target: T1, Tumor necrosis factor; details: Blood, dose 160.0 mg, time 14.0 day
Tumor necrosis factor [3] = molecular target: T1, Tumor necrosis factor; details: Blood, dose 160.0 mg, time 1.0 day
Tumor necrosis factor [4] = molecular target: T1, Tumor necrosis factor; details: Blood, dose 80.0 mg, time 1.0 day
[5] = AUC(0 to t) in rat at 60 mg/kg/day after 13 weeks; type: ADME, organism-based; set-up: time 13 weeks, dose 60 mg/kg/day; details: in vivo
Tumor necrosis factor [6] = molecular target: T1, Tumor necrosis factor; details: Blood, dose 80.0 mg, time 1.0 day; remark: listed apart in the source
[7] = molecular target: T2, ORAI1/STIM1 (Homo sapiens) (UniProt Q96D31+Q13586); details: HEK293, dose 100.0 nM, time 4.0 hrs
Tumor necrosis factor [8] = molecular target: T1, Tumor necrosis factor; details: Blood, dose 80.0 mg, time 14.0 day; remark: listed apart in the source
[9] = molecular target: T2, ORAI1/STIM1 (Homo sapiens); details: HEK293, dose 300.0 nM, time 4.0 hrs

Question: Which inhibition (Tumor necrosis factor [1]) does the source give for `Cc1c(-c2ccc(NC(=O)c3c(F)cccc3F)cc2)cccc1-c1nn(C)c(=O)o1` here?
Answer: The inhibition was 56%.

Question: And the inhibition (Tumor necrosis factor [2])?
Answer: Its inhibition is 86%.

Question: And the inhibition (Tumor necrosis factor [3])?
Answer: The inhibition was 66%.

Question: What about the inhibition (Tumor necrosis factor [4]) of the same compound?
Answer: The inhibition was 57%.

Question: And the AUC(0-t) at 2184 h [5]?
Answer: Its AUC(0-t) at 2184 h is 72900 ng·h/mL.

Question: And the inhibition (Tumor necrosis factor [6])?
Answer: The inhibition was 21%.

Question: And the inhibition [7]?
Answer: The inhibition was 72.9%.

Question: What about the inhibition (Tumor necrosis factor [8]) of the same compound?
Answer: Its inhibition is 82%.

Question: And the inhibition [9]?
Answer: Its inhibition is 77.6%.
